This is a selection; strong and weak results do not stand in their true shares. Some of these compounds have results that are not shown, active ones among them. Results filed as inconclusive are left out. Active and inactive are the calls of the source. Calls follow the shape of the dose curve; as a rule, active = well fitted curve in either direction with a large enough effect; inconclusive = small, poorly fitted or top-dose-only effect, or another doubt; inactive = flat fitted curve, though single readings scatter.
% is scaled to controls: 0 for no effect and ±100 for the full control effect.

This assay deals with Hsp90 C-terminal peptide / TPR2A (Hop) interaction, human. Kind of assay: qHTS Assay for Disrupters of an Hsp90 Co-Chaperone Interaction. Particulars: AlphaScreen TPR2A-His6 binding biotin-Hsp90 C-terminal peptide; at 11 µM (top of the series) unless noted. The source says: NIH Chemical Genomics Center [NCGC]
NIH Molecular Libraries Screening Centers Network [MLSCN]
Hsp90 (heat shock protein 90) is the essential molecular chaperone and it accounts for 1-2% of all cytosolic proteins and is critical for the activity of diverse cellular proteins that are involved in a variety of cellular processes, including development, cell cycle, and steroid hormone signaling. Its client proteins include signaling kinases such as IGF1R, Akt, v-Src, Raf-1; regulators of cell survival such as Bcr-Abl; and transcription factors such as mutated p53, estrogen and progesterone receptors. Hsp90 has emerged as an important target for cancer treatment due to its essential role in maintaining transformation and regulating the function of oncogenic signaling proteins.
The in vivo function of Hsp90 is regulated by the binding and hydrolysis of ATP at its N-terminal. Geldanamycin binds to ATP site and inhibit Hsp90 function. Geldanamycin and its analogues are under clinical trials in cancer patients.
This domain contains the binding site for tetratricopeptide repeat (TPR) domains on HOP (Hsp Organizing Protein). TPR is a structural motif used by a significant number of cochaperones by which the in vivo function of Hsp90 is regulated. TPR2A on HOP binds specifically to MEEVD motif of the C-terminal of Hsp90.
A homogeneous AlphaScreen is developed to assess the interaction between TPR2A and MEEVD motif of the C-terminal of Hsp90 by using the isolated TPR2A domain and a synthesized 20mer Hsp90 C terminal peptide. AlphaScreen is two bead-based proximity-dependent chemical energy transfer luminescent assay platform. TPR2A-His-6 and biotinylated Hsp90 C terminal peptide will bring streptavidin donor beads and nickel chelate acceptor beads to a proximity range (less than 200 nm), and subsequently lead a chemical luminescent reaction upon exciting donor beads with 680 nm laser. Inhibition of TPR2A and MEEVD motif interaction by small molecules could attenuate or abolish this chemical luminescent reaction.
Counter screening: Biotinylated-His-6 (PerkinElmer) can be utilized as a counter screen, as it serves as a linker to bring streptavidin beads and nickel chelate beads together. The counter screen can exclude alpha screen platform false positives due to small molecules being metal chelators, biotin analogues and imidazole analogues, or due to interfering with oxygen release from donor beads. Such an assay should be utilized to qualify any activity observed in this screen.
NCGC Assay Protocol Summary:
The assay was performed on 1536-well white plate (untreated solid bottom). Liquids were dispensed by 1536-well plate washer (Kalypsys, San Diego, CA). Plates were read on EnVision (PerkinElmer, Boston, MA).TPR2A-His6 was produced using a bacteria expression system and purified using a well developed method (Ghosh et al., 2000). Hsp90 C terminal 20-mer peptide with or without an N-terminal biotin group are synthesized using automated solid phase synthesis by the Yale Keck facility. The composition of assay buffer was (in mM) 25 HEPES, 100 KCl, 2 MgCl2 and 2 DTT; 0.1% BSA and 0.01% Tween-20. TPR2A-His6 binding to biotin-Hsp90 will bring streptavidin donor beads and nickel chelate acceptor beads (PerkinElmer) together and can be measured by Alpha reading by EnVision (PerkinElmer). Free Hsp90 blocks biotin-Hsp90 binding to TPR2 and serves as a positive control in the current asssay.
The assay was performed at room temperature. […]
On to `CN(C)c1cccc(C(=O)NCC2(N(C)C)CCCCC2)c1`, for which the activity change, negative = inhibition is inactive: -3.22% [at 57 µM].
The value for `CN1CCC[C@H](OC(=O)[C@](O)(c2ccccc2)C2CCCC2)C1` was inactive: -3.29%.
As for `O=C(OC1CN2CCC1CC2)C(CO)(c1ccccc1)c1ccccc1` (stereo not given), the figure is inactive: -6.03% [at 57 µM]; as for `CN1CC[C@H](OC(=O)[C@](O)(c2ccccc2)C2CCCC2)C1`, inactive: -1.41%.
Take `C=C(C)C#C[C@@](O)(C(=O)OC1CCN(C)CC1)c1ccccc1`: the activity change, negative = inhibition is inactive: -4.35%.

(Values after PubChem BioAssay AID595 (National Center for Advancing Translational Sciences (NCATS), 2007).)
